Data published in patent publication US20220096421A1, “Active Ingredient, Pharmaceutical Composition, and Medicinal Product for HIV and AIDS Therapy” (priority 2019, published 2022).

Assay: Clinical trial in healthy volunteers, pharmacokinetics with daily administration of capsules

N#Cc1cc(Cl)cc(Oc2c(Br)ccc(CC(=O)Nc3ccc(S(N)(=O)=O)cc3Cl)c2F)c1 [Ia]
accumulation in the blood after repeated drug administration: showed accumulation in the blood
concentration of the metabolite in blood cells compared with plasma (repeated administration): an order of magnitude higher than in the plasma
